Values of other authors in patent US5054434A, “Suppression of ammonia odors from animal wastes” (W. R. Grace & Co.-Conn., priority 1989, dated 1991).

Details: smell of the acid itself; cited from earlier work

phosphoric acid
Smell: None
